Biological target: FITC tagged AAV Po1 capsid bipartite NLS peptide (residues 119-158) (porcine adeno-associated virus, strain Po1)
Assay: fluorescence polarisation

Work on “Mouse importin α2 lacking the IBB domain (mImpα2DIBB) (from UniProt P52293 70-529) (domain or fragment)” yielded a Kd of 1 nM.

— PMC9964314
